Experiments:
[1] = biological target: T1, rSERT (Rattus norvegicus, UniProt P31652); test: Radioligand binding assay (RBA), competition with [3H]-citalopram, membranes of T-REx-SERT cells
T1 construct: expressed in transfected cells; host or cells: T-REx-SERT cells (T-REx 293 based, tetracycline-inducible), gift of C.G. Tate

Amino acid sequences for entries named in this document (tags omitted).
UniProt P31652, whole entry: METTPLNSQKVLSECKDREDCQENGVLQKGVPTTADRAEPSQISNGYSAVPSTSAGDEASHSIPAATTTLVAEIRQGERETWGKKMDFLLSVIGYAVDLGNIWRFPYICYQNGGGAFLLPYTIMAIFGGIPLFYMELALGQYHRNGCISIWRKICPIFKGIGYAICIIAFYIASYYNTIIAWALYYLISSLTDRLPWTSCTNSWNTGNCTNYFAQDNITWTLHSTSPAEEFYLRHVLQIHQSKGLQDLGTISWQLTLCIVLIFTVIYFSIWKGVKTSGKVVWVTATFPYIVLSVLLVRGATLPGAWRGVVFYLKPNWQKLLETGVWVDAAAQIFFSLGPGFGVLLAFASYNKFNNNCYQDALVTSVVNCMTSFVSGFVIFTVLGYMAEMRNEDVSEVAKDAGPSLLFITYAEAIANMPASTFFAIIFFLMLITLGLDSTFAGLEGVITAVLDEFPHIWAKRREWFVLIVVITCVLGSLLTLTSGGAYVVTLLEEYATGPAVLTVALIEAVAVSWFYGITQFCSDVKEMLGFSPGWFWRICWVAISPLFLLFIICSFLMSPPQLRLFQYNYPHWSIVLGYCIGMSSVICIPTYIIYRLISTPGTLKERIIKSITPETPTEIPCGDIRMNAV

[2] = biological target: T1, rSERT; test: PAL and CuAAC fluorescence assay of 17 on rSERT-enriched material immobilized on ANTI-FLAG M2 affinity gel, with competitors; format: binding; settings: 17 1 μM; competitor 1 mM (1000 fold molar excess); PAL then CuAAC rhodamine fluorescence
[3] = biological target: T1, rSERT; test: PAL of 17 in living T-REx-SERT cells followed by CuAAC rhodamine labelling, with competitor; format: cell-based; settings: 17 10 μM, equimolar paroxetine (10μM)

Fc1ccc([C@@H]2CCNC[C@H]2COc2ccc3c(c2)OCO3)cc1 [Paroxetine, paroxetine, reference compound]
IC50 [1]: 0.0955 nM
Ki [1]: 0.07 nM
decrease in binding signal of 17 at enriched rSERT by competitor [2]: 60%
decrease of fluorescent signal of 17-rSERT by competitor in living cells [3]: 60–70%

Source: article PMC4749225, “Azidobupramine, an Antidepressant-Derived Bifunctional Neurotransmitter Transporter Ligand Allowing Covalent Labeling and Attachment of Fluorophores” (PLoS ONE, 2016)
